pIC50: −log10 of the molar value.
Molecular target: GPR73 (prokineticin 1 receptor) (Homo sapiens, UniProt Q8TCW9)
Experiment: PK1 functional assay: Ca2+ mobilization on the FLIPR
Settings: for Ca^2+ Mobilization % Inh @10 µM: 10 µM; for pIC50: read-out: Ca^2+ Mobilization IC50, HEK 293 GPR73 cells
Description: At a time of 24 h prior to running the assay, in cell culture media (DMEM containing high Glucose and L-glutamine, 10% FBS, 1% Pen/Streptomycin, 1% Sodium Pyruvate, 20 mM HEPES, Zeocin 200 mg/L), 100 µL of 1.3*10^6/ml HEK 293 GPR73 (prokineticin 1 receptor) expressing cells were plated in a 96 well poly-d-lysine coated plate (Costar), and incubated at 37° C. and 5% CO2. On the day in which the assay was run, the media was removed and 200 µL of 5× Calcium Plus Dye (Molecular Devices) which was previously resuspended with 200 mL of assay buffer [HBSS w/Ca^2+ and Mg^2+ w/o phenol red, 20 mM HEPES, 0.1% BSA, 10 mL probenecid (710 mg probenecid in 5 mL of 1N NaOH, to which was then added 5 mL HBSS containing 20 mM HEPES)] was added to each well of the 96-well plate. The plate was incubated at 37° C. and 5% CO2 for 30 min in dark. The plate was removed and allowed to reach RT for 15 min in the dark. The assay was then run on the FLIPR. In Brief: base line read for 1 min, compound added (25 μL) and incubated for 4 min, 15 seconds, PK1 ligand preparation added (25 μL) for a final concentration of a previously determined EC50 and fluorescence was counted for 1 min, 45 seconds. Baseline is described as the amount of relative fluorescence read when buffer alone is added to cells. Baseline was subtracted from all wells. Percent of control was calculated as follows: (Baseline subtracted well value is divided by baseline subtracted max value)*100. Percent inhibition is 100 minus the percent of control value.
The IC50 is defined as the amount of a given compound required to inhibit 50% of the maximum signal that is generated by the concentration of PK1 preparation used in our assay. IC50 values were calculated using GraphPad Prism.

Amino acid sequences for entries named in this document (tags omitted).
UniProt Q8TCW9, whole entry: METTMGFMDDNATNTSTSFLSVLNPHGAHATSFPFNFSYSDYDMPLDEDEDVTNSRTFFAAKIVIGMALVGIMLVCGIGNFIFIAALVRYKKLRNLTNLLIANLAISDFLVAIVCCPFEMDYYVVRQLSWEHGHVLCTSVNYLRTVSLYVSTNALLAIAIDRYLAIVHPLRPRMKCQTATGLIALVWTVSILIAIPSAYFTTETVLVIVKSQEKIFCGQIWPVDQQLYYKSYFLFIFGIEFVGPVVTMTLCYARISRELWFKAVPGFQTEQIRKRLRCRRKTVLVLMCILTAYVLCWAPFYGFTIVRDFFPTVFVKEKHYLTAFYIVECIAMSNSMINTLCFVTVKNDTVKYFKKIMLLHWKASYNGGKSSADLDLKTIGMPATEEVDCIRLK

With COc1ccc(Cn2c(NCCn3ccnc3NC(=O)C(C)(C)C)nc(=O)n(Cc3ccc(F)cc3)c2=O)cc1 the “Ca^2+ Mobilization % Inh @10 µM” value was 99% and the pIC50 was 6.97.
For NC1=NCc2ccccc2N1CCNc1nc(=O)n(Cc2ccc(F)cc2)c(=O)n1Cc1ccc(OC(F)F)cc1, the “Ca^2+ Mobilization % Inh @10 µM” value was 96% and the pIC50 was 6.77.
With COc1ccc(Cn2c(NCCn3c(N)nc4ccc(C)cc43)nc(=O)n(Cc3ccc(F)cc3)c2=O)cc1 [Cpd 3, 6-[2-(2-Amino-6-methyl-benzoimidazol-1-yl)-ethylamino]-3-(4-fluoro-benzyl)-1-(4-methoxy-benzyl)-1H-[1,3,5]triazine-2,4-dione] the “Ca^2+ Mobilization % Inh @10 µM” value was 93% and the pIC50 was 6.91.
With COc1ccc(Cn2c(NCCn3c(NC(=O)C(F)(F)F)nc4ccccc43)nc(=O)n(Cc3ccc(F)cc3)c2=O)cc1 the “Ca^2+ Mobilization % Inh @10 µM” value was 96% and the pIC50 was 6.38.
In the case of COc1ccc(Cn2c(NCCn3c(NC(=O)C(C)(C)C)nc4ccccc43)nc(=O)n(Cc3ccc(F)cc3)c2=O)cc1, the “Ca^2+ Mobilization % Inh @10 µM” value was 93% and the pIC50 was 6.10.
For CC(=O)Nc1nc2ccccc2n1CCNc1nc(=O)n(Cc2ccc(F)cc2)c(=O)n1Cc1ccc(OC(F)F)cc1, the “Ca^2+ Mobilization % Inh @10 µM” value was 47% and the pIC50 was 5.10.
